Laboratory results: BindingDB's records for doi:10.1038/sj.mp.4000336 (University of Toronto, 1998)
Blank lines part the entries; values can stand above or below the compound they belong to.

By UniProt entry, the sequences of proteins in these tests, tags left out.
UniProt P21917, whole entry: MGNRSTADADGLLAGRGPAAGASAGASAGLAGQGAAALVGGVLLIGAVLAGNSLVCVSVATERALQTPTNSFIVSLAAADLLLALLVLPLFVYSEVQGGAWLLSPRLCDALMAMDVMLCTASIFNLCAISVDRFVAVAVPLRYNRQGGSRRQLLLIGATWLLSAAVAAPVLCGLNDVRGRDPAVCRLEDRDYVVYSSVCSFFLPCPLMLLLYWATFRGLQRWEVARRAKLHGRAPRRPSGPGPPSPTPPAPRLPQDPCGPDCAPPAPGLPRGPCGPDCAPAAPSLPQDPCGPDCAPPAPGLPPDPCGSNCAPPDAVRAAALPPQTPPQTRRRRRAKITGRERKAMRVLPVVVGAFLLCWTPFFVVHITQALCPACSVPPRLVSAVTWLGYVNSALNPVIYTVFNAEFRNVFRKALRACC
UniProt P28223, whole entry: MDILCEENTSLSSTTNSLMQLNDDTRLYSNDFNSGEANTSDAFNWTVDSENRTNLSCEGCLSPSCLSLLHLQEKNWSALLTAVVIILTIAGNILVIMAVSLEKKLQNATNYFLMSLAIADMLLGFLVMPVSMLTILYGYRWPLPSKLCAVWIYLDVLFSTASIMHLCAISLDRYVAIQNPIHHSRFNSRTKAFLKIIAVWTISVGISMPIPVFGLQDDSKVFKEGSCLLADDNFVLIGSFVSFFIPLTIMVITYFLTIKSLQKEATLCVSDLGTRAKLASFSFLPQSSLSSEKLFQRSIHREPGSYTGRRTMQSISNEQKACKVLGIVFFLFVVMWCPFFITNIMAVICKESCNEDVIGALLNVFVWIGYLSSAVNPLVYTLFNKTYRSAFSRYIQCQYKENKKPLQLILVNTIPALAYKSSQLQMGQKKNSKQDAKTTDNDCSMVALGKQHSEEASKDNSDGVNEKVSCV
UniProt P14842, whole entry: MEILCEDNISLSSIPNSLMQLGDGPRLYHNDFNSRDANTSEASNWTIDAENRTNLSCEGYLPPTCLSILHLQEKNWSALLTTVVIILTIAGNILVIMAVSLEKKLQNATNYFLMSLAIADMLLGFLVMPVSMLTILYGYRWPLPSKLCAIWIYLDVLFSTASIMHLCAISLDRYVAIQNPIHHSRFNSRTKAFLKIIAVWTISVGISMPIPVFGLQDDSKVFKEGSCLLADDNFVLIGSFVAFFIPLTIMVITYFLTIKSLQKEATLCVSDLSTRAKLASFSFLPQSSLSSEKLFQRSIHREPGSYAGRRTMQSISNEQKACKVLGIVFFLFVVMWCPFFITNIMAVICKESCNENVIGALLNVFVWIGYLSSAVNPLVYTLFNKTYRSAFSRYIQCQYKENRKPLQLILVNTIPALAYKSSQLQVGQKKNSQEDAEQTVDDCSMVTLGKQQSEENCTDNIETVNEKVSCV
UniProt P14416, whole entry: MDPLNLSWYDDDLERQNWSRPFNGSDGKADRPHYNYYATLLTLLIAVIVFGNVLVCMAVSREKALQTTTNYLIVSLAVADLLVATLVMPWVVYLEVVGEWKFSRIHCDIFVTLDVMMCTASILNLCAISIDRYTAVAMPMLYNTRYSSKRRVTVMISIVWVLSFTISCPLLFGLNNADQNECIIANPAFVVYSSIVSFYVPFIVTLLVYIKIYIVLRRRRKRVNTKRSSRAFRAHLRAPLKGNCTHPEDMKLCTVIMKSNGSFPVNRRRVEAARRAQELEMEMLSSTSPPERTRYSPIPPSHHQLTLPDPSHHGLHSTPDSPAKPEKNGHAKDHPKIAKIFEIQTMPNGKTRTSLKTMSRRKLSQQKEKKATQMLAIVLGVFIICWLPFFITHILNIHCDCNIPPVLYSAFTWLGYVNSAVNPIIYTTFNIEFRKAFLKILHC

Key:
[1] = biological target: D(4) dopamine receptor (Homo sapiens, UniProt P21917)
[2] = biological target: 5-hydroxytryptamine receptor 2A (Homo sapiens, UniProt P28223)
[3] = biological target: 5-hydroxytryptamine receptor 2A (Rattus norvegicus, UniProt P14842)
[4] = biological target: D(2) dopamine receptor (Homo sapiens, UniProt P14416)

- Ki [1]: 200 nM
Compound: CCN1CCC[C@H]1CNC(=O)c1cc(S(N)(=O)=O)ccc1OC [Sulpiride-S]

- Ki [2]: 150 nM
Compound: CC1CCN(CCCC(=O)c2ccc(F)cc2)CC1 [CAS_3575-80-2]

- Ki [3]: 0.54 nM
Compound: Cc1nc2sccn2c(=O)c1CCN1CCC(=C(c2ccc(F)cc2)c2ccc(F)cc2)CC1

- Ki [4]: 6 nM
Compound: CN1CCN(C2=Nc3cc(Cl)ccc3Oc3ccccc32)CC1
